# Source: PubChem BioAssay (several laboratories)
# MC4R antagonist: antagonists of human melanocortin 4 receptor (MC4R); AID 540295; P32245; inhibition, % at 6.5 µM; MC4R-expressing cells, MTII-stimulated cAMP, LANCE TR-FRET; hit rate 0.48% among 360,000;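 active = inhibition above its plate's cutoff, the mean of tested wells on that plate plus 3 SD, cut at about 29% in these data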;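 also: 0% = Melanotan II alone and 100% = Melanotan II plus saturating MCL0020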
#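 Assay system: U2OS-MC4R stable cell line; Also added: Melanotan II; Technique: Eu-cAMP/anti-cAMP TR-FRET, emission 671 nm; Times: 30-min compound, 1-h challenge, 1-h detection, room temperature.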
# HDAC3 inh: inhibitors of human histone deacetylase 3; recombinant HDAC3, fluorogenic peptide/trypsin coupled, fluorescence; inhibition, % at 8.3 µM; hit rate 0.15% among 320,000; in the data active = inhibition above about 26%, passing the limit was not always enough; inconclusive = no clear call, values can overlap the other calls
# Yeast UUG start: alters start codon recognition fidelity in yeast | S. cerevisiae UUG-firefly luciferase reporter, luminescence/redox ratio | activity score, % at 18.7 µM | 350,000 compounds, 0.13% hits | AID 602363;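 active = replicate mean at a twofold rise or more, about +100% in these data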;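 note: firefly luciferase made from a UUG start codon reports start codon fidelity; reporter light over untreated wells divided by growth signal over untreated wells; some hits fall short of that in this replicate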
# ALR H2O2 inh: blocks human ALR sulfhydryl oxidase activity; inhibition, % (concentration not given with the values); purified ALR, DTT oxidation, H2O2 HRP-luminol luminescence; P55789; 3.8% of 290,000 active;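 active = mean and each replicate at 75% or more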;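 also: stock transfer was 7.5 nL into about 7.5 µL; 0% = neutral wells and 100% = wells with inactivated enzyme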
# NALP1 inh: blocks the NALP1 inflammasome reconstituted in yeast; S. cerevisiae NALP1/ASC/caspase-1 growth, X-gal OD620, 72 h; inhibition, % at 10 µM; hit rate 0.61% among 280,000; in the data active = inhibition mostly above about 24%, no sharp cut-off; inactive = mostly below about 32%
# MC4R ag barr: agonists of human melanocortin 4 receptor (MC4R) beta-arrestin. AID 540308. P32245. hit rate 0.98% among 360,000. U2OS MC4R beta-arrestin complementation, luminescence; percent of melanotan II response, DMSO zero. activation, % at 8.9 µM;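 active = activation above a per-plate cutoff, the mean activation of sample wells on that plate plus 3 SD, cut at about 8% in these data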
# Active calls of the source: *; u = inconclusive; x = not tested or not shown. Rows were chosen to be rich in hits. Some 4.2% of all compounds tested hit in one or more screens of this group.
cpd	MC4R antagonist	HDAC3 inh	Yeast UUG start	ALR H2O2 inh	NALP1 inh	MC4R ag barr	structure
1	3.2	-2.2	-14.6	98.3*	-2.8	-1.4	CC(C)c1ccc(NC2CCCN(C(=O)CCc3cn[nH]c3)C2)cc1 (stereo unspecified)
2	4.0	-8.1	-4.2	66.2	11.9	-1.0	O=C(CSc1ccccc1)N1CCCC(Nc2ccccc2)C1 (stereo unspecified)
3	3.3	1.9	-4.4	56.5	7.8	-1.4	O=C(CCc1ccncc1)N1CCCC(Nc2ccc(F)cc2)C1 (stereo unspecified)
4	4.1	x	-0.9	x	-2.4	-2.8	O=C(CSc1ccccn1)N1CCCC(Nc2ccccc2)C1 (stereo unspecified)
5	-1.5	-0.8	-5.6	98.5*	16.0	-2.1	COc1ccc(CCC(=O)N2CCCC(Nc3ccccc3)C2)cc1OC (stereo unspecified)
6	6.3	0.0	2.0	87.4*	6.6	-3.7	COc1ccc(NC2CCCN(C(=O)CCC3=NNC(=O)CC3)C2)cc1 (stereo unspecified)
7	0.4	4.0	-12.0	68.8	16.0	-2.4	CCc1nccn1CCC(=O)N1CCCC(Nc2ccc(C(C)C)cc2)C1 (stereo unspecified)
8	x	x	-13.6	x	x	x	OC[C@H]1[C@H](c2ccc(-c3cccnc3)cc2)[C@H]2CN(CC3CCOCC3)CCCCN21
9	x	x	22.0	x	x	x	O=C(NC1Cc2ccccc2C1)[C@H]1[C@H](CO)[C@H]2Cn3c(ccc(C4=CCCCC4)c3=O)[C@@H]1N2CC1CC1
10	x	x	-7.5	x	x	x	COCCNC(=O)C[C@H]1CC[C@@H]2[C@@H](COc3ccc(NC(=O)c4cnccn4)cc3C(=O)N2C)O1
11	4.6	1.0	-10.0	97.3*	20.3	-0.3	COc1ccc(NC2CCCN(C(=O)C3(C)CCCCC3)C2)cc1 (stereo unspecified)
12	-5.0	-8.2	-8.7	3.3	1.6	-0.6	COc1ccc(NC(=O)NC2(C(=O)N3CCN4CCCC4C3)CCCCC2)cc1 (stereo unspecified)
13	3.2	-0.4	-10.0	98.2*	5.4	-2.2	O=C(CCc1ccccc1)N1CCCC(Nc2ccc(F)cc2)C1 (stereo unspecified)
14	-0.7	2.6	-23.9	99.1*	-0.5	-3.1	COc1ccc(NC2CCCN(C(=O)CSc3ccncc3)C2)cc1 (stereo unspecified)
15	15.7	u	-14.6	99.2*	8.7	2.9	COc1ccc(CCC(=O)N2CCCC(Nc3ccc(OC)cc3)C2)cc1 (stereo unspecified)
16	x	x	3.8	x	x	x	CN1CCN(C(=O)C[C@H]2C[C@@H]3c4cc(NC(=O)C5CCOCC5)ccc4O[C@@H]3[C@H](CO)O2)CC1
17	2.5	-3.8	-25.4	98.9*	7.9	-2.7	COc1ccc(NC2CCCN(C(=O)CCc3cn[nH]c3)C2)cc1 (stereo unspecified)
18	-1.0	0.7	-17.9	u	-1.4	-1.4	Cn1cc(CCC(=O)N2CCCC(Nc3ccc(F)cc3)C2)cn1 (stereo unspecified)
19	12.2	-2.7	x	-4.4	44.0	0.4	O=C(Oc1ccc(OC(=O)C2CCC2)cc1)C1CCC1
20	13.4	81.3*	-14.1	-5.3	x	-0.3	NCC1CCC(C(=O)Oc2ccc(CCC(=O)O)cc2)CC1 (stereo unspecified)
21	-2.7	28.2*	-10.3	-7.5	-80.4	0.8	CCN1CCN(C(=O)C2c3cc(OC)c(OC)cc3C(=O)N(C)C2c2ccc(SC)cc2)CC1 (stereo unspecified)
22	x	x	-12.3	x	x	x	O=C(NCC[C@@H]1CC[C@@H](NS(=O)(=O)c2cccc(F)c2)[C@@H](CO)O1)Nc1cc(F)ccc1F
23	x	x	-0.8	x	x	x	CO[C@H]1CN(C)C(=O)c2cc(NC(=O)NC3CCCCC3)ccc2OC[C@H](C)N(CC2CC2)C[C@@H]1C
24	4.0	-7.9	-9.0	10.1	x	8.4*	Cc1cc(C)c2c(N)c(C(=O)Nc3ccccc3Cl)sc2n1
25	0.3	-15.9	-19.6	-2.1	10.9	-0.4	Cc1cc(C)c2c(N)c(C(=O)Nc3ccccc3F)sc2n1
26	0.3	4.9	-6.0	91.2*	3.6	-3.5	Cc1cc(C)c2c(N)c(S(=O)(=O)Cc3ccccc3)sc2n1
27	x	x	-3.4	x	x	x	O=C(O)C[C@H]1C[C@H]2c3cc(NC(=O)CC4CC4)ccc3O[C@H]2[C@@H](CO)O1
28	x	x	3.6	x	x	x	C[C@H]1CN([C@@H](C)CO)C(=O)c2cc(-c3ccc(C#N)cc3)cnc2O[C@@H]1CN(C)C(=O)CC1CC1
29	-6.4	-7.2	-22.3	98.7*	42.1	0.5	Cc1cccc(CSc2nn3c(=O)c(C)nnc3s2)c1
30	3.3	0.8	-3.2	-9.0	19.2	-4.7	Cc1ccc(CSc2nn3c(=O)c(C)nnc3s2)cc1
31	4.7	0.6	0.9	93.0*	2.7	-2.6	Cc1nnc2sc(SCC(=O)Nc3ccc(Cl)cc3)nn2c1=O
32	-2.0	10.4	0.1	98.2*	-25.8	-1.8	CC(=O)Nc1cccc(NC(=O)CSc2nn3c(=O)c(C)nnc3s2)c1
33	x	x	-5.1	x	x	x	COc1ccc(CNC(=O)C[C@@H]2C[C@H]3c4cc(NC(=O)CN(C)C)ccc4O[C@H]3[C@@H](CO)O2)cc1
34	4.9	29.3*	3.1	1.1	21.6	2.1	CC1=C(C(=O)OC(C)C)C(c2cccs2)C(C(=O)OC(C)C)=C(C)N1
35	21.6	-6.7	-23.8	21.0	-9.9	-3.4	CC1=C(C(=O)OC(C)C)C(c2cccs2)NC(=O)N1 (stereo unspecified)
36	15.5	-4.6	x	98.5*	18.1	-3.5	COC(=O)c1ccc(COc2ccc(/C=N/O)cc2)o1
37	10.6	0.1	-5.1	-1.6	11.1	-1.2	COC(=O)c1ccc(COc2ccc(C=O)cc2)o1
38	2.7	2.2	-15.9	99.5*	5.5	-1.1	CCOCCc1nn2c(=O)cc(CSCC(=O)Nc3ccccc3)nc2s1
39	0.7	7.3	-8.6	98.3*	19.7	-0.9	Cc1cccc(NC(=O)CSCc2cc(=O)n3nc(C4CC4)sc3n2)c1
40	0.4	5.7	2.0	98.9*	23.0	-2.7	O=C(CSCc1cc(=O)n2ccsc2n1)Nc1ccccc1

# Reformatted: results already given
23. CO[C@H]1CN(C)C(=O)c2cc(NC(=O)NC3CCCCC3)ccc2OC[C@H](C)N(CC2CC2)C[C@@H]1C
  MC4R antagonist: x; HDAC3 inh: x; Yeast UUG start: -0.8; ALR H2O2 inh: x; NALP1 inh: x; MC4R ag barr: x
24. Cc1cc(C)c2c(N)c(C(=O)Nc3ccccc3Cl)sc2n1
  MC4R antagonist: 4.0; HDAC3 inh: -7.9; Yeast UUG start: -9.0; ALR H2O2 inh: 10.1; NALP1 inh: x; MC4R ag barr: 8.4*

# HDAC3 inh: entries above that show a hit.
cpd	MC4R antagonist	HDAC3 inh	Yeast UUG start	ALR H2O2 inh	NALP1 inh	MC4R ag barr	structure
20	13.4	81.3*	-14.1	-5.3	x	-0.3	NCC1CCC(C(=O)Oc2ccc(CCC(=O)O)cc2)CC1 (stereo unspecified)
21	-2.7	28.2*	-10.3	-7.5	-80.4	0.8	CCN1CCN(C(=O)C2c3cc(OC)c(OC)cc3C(=O)N(C)C2c2ccc(SC)cc2)CC1 (stereo unspecified)
34	4.9	29.3*	3.1	1.1	21.6	2.1	CC1=C(C(=O)OC(C)C)C(c2cccs2)C(C(=O)OC(C)C)=C(C)N1

# (listing goes on)
cpd	MC4R antagonist	HDAC3 inh	Yeast UUG start	ALR H2O2 inh	NALP1 inh	MC4R ag barr	structure
41	3.0	2.3	-5.6	40.7	22.9	-2.6	COc1ccc(NC(=O)CSCc2cc(=O)n3nc(C4CC4)sc3n2)cc1
42	-0.9	-1.6	-8.5	99.1*	7.2	-1.2	COc1cccc(NC(=O)CSCc2cc(=O)n3ccsc3n2)c1
43	x	x	-1.3	x	x	x	CN1CCN(C(=O)C[C@H]2CC[C@H](NC(=O)Cc3ccccn3)[C@H](CO)O2)CC1
44	x	x	2.7	x	x	x	CC(=O)N(C)C[C@@H]1Oc2cc(C#Cc3ccccc3)ccc2S(=O)(=O)N([C@@H](C)CO)C[C@@H]1C
45	15.2	8.0	-4.0	97.4*	21.6	0.4	Cc1cc(C)n2nc(C(=O)N3CCN(c4ccc([N+](=O)[O-])cc4)CC3)nc2n1
46	15.2	-8.2	1.3	42.2	-6.9	0.0	COc1ccc(N2CCN(C(=O)c3nc4nc(C)cc(C)n4n3)CC2)cc1
